# Test system: Prostaglandin D2 receptor 2, CRTh2 (Homo sapiens)
# Experiment: Antagonist activity at CRTH2 receptor (unknown origin) expressed in CHOK1 cells assessed as dissociation half life measured up to 25 hrs by GTPgammaS assay
# Settings: CHO-K1
row,SMILES,T1/2
1,Cc1c(CC(=O)O)c2ccncn2c1Cc1ccccc1S(=O)(=O)c1ccccc1,12 min
2,Cc1c(Cc2ccccc2S(=O)(=O)c2ccccc2)c2c(n1CC(=O)O)CCNC2=O,138 min
3,COc1ccc(S(=O)(=O)c2ccc(F)cc2)c(Cn2cc(CC(=O)O)c3ccc(C)nc32)c1,30 min

# Next, values leading:
row,T1/2,SMILES
1,90 min,COc1ccc(S(=O)(=O)c2ccc(F)cc2)c(Cc2c(C)c(CC(=O)O)c3ccncn23)c1
2,1.2 min,Cc1c(Cc2ccccc2S(=O)(=O)c2ccccc2)c(-c2ccccc2)nn1CC(=O)O

# Source: ChEMBL document CHEMBL3774370, “Structure-activity relationships (SAR) and structure-kinetic relationships (SKR) of sulphone-based CRTh2 antagonists” (Eur J Med Chem, 2016)
